Experimental data reported in US11285156B2, “Substituted piperazines as KRAS G12C inhibitors” (Amgen Inc., priority 2018, dated 2022).

The chains behind the UniProt entries cited, without tags or fusion partners. Where a name states a change or a piece, a line headed by the entry shows the natural chain unless it says otherwise.
UniProt P01116: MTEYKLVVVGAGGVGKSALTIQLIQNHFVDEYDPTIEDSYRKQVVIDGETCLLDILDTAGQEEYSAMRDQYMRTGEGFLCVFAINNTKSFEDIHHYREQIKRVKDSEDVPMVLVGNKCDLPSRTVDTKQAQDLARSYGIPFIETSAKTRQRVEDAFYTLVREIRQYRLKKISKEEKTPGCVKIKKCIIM

Molecular target: GDP-bound KRAS protein (aa 1-169), containing both G12C and C118A amino acid substitutions (Homo sapiens (Human), UniProt P01116, C118A/G12C)
Assay: Coupled nucleotide exchange assay (SOS-mediated nucleotide exchange, AlphaScreen)
Format: biochemical
Conditions: read-out: Coupled exchange IC50 (5 min; μM); 5 min compound pre-incubation

SMILES: C=CC(=O)N1C[C@H](C)N(c2nc(=O)n(-c3c(C(C)C)nc(CN(C)C)nc3C(C)C)c3nc(-c4ccccc4F)c(Cl)cc23)C[C@H]1C [Example 160, 4-((2S,5R)-4-Acryloyl-2,5-dimethylpiperazin-1-yl)-6-chloro-1-(2-((dimethylamino)methyl)-4,6-diisopropylpyrimidin-5-yl)-7-(2-fluorophenyl)pyrido[2,3-d]pyrimidin-2(1H)-one]
- IC50: 0.081 µM
